# Antibody variant affinities, Ab-14 light chain, assay 1

The target is the same throughout: PDVDLGDISGINAS, from the HR2 region of SARS-CoV-2 spike.

Parent scFv Ab-14: VH joined to VL by a 15-residue (Gly4Ser)3 linker. Changes lie in the light chain CDRs alone.
VH: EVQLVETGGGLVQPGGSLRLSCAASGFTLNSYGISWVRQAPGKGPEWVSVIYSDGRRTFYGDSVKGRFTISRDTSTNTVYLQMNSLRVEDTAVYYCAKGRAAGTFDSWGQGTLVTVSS
VL: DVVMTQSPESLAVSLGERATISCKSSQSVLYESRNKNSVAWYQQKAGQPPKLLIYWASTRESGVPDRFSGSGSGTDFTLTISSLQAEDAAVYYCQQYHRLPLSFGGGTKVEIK

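The parent was found by panning a naive human phage display library on the peptide. Library AAYL50 holds single substitutions and randomly drawn double and triple substitutions in the CDRs. In AlphaSeq, yeast of one mating type display the scFv and yeast of the other type display the target. Binding brings cells together so that they mate, and sequencing counts the barcode pairs among the diploids. Each replicate has its own calibration line, from reference interactions of the BCL2 family. Each pool was mated in three replicate cultures.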

Each variant is given by its three light chain CDRs, as the data file delimits them; those of the parent are KSSQSVLYESRNKNSVA, WASTRES, QQYHRLPLS. All variants listed here change H98 of the VL, counted from its first residue. Kd is apparent (estimated from mating counts) and averaged on the log scale over replicates with a signal. Smaller is tighter. A pair that was not seen in any replicate is written "nd"; this usually means weak binding, but a binder can also be missed. Three control strains display no target. For library AAYL50, 18% of the pairings with them gave a signal, with a median of 15 µM and one signal in twenty below 970 nM, so weak values seen in few replicates may be background. Parent in this assay: reference entry 4.4 nM, copy in this library 48 nM.

With KSSQSVLYESRNKNSVA / WASTRES / QQVGRLPVS the result was 3.7 nM (3 of 3 replicates). Variant KSSQSVLYEQRNKNSVA / WASTRES / QQYPRLPLS gave 140 nM (3 of 3 replicates). For KSSWSWLYESRNKNSVA / WASTRES / QQYERLPLS, the assay gave 12 nM (3 of 3 replicates). Variant KSSQSVLYESRNKNSVA / PASTRES / QQYVRLPLS showed 77 µM (2 of 3 replicates). Variant NSSQSVLYISRNKNSVA / WASTRES / QQYSRLPLS gave 5.9 µM (3 of 3 replicates). For KSSQSVLYESRNHNSVA / WASTRES / QQYKRLPLS, the assay gave 1.7 µM (3 of 3 replicates). Variant KSSDSVLYESRNKNSHA / WASTRES / QQYKRLPLS showed 35 µM (2 of 3 replicates). For KSSQSVLYESRNKVSVA / WASTRES / QQYQRLPQS, the assay gave 4.0 µM (3 of 3 replicates).

For KSSLSVLYESRNKNSVA / WASTRES / QSYFRLPLS, the assay gave 27 nM (3 of 3 replicates). With KSSQSVLYESRNKNSVA / WASTRMS / QQYPRLPWS the result was 230 nM (3 of 3 replicates). Variant KSSYSVLYLSRNKNSVA / WASTRES / QQYYRLPLS gave 2.3 µM (3 of 3 replicates). With KSSTSVLYESRNTNSVA / WASTRES / QQYRRLPLS the result was 4.3 nM (3 of 3 replicates). Variant KSSQSVRYESRNKNSVC / WASTRES / QQYCRLPLS showed 210 µM (2 of 3 replicates). Variant KSSQSVLYESRNKNSVA / WASHRGS / QQYIRLPLS gave 66 nM (3 of 3 replicates). Variant KSSQSVLYESRNKYSVA / WASTRES / NQYKRLPLS gave nd (0 of 3 replicates). Variant KSSQSVLYESRNKNSVA / WASGRHS / QQYIRLPLS showed 35 µM (1 of 3 replicates).

Variant KSSESVLYESRNKNSVA / WASTRES / QQYVRLFLS showed 7.9 µM (3 of 3 replicates). For KSSQSVLYESFNKNSVA / WASTRES / QQYERLPMS, the assay gave 23 nM (3 of 3 replicates). For KSSQSALYESRNKNHVA / WASTRES / QQYVRLPLS, the assay gave 17 nM (3 of 3 replicates). For KSAQSVLYESRNKNSVA / WASTRES / QQYIRTPLS, the assay gave 110 µM (2 of 3 replicates). Variant GSSQSVLAESRNKNSVA / WASTRES / QQYGRLPLS gave 3.7 nM (3 of 3 replicates). Variant KSSQSVLYECRNKNSVA / WASTRES / QQYARLPWS gave 350 µM (1 of 3 replicates). For KSSQSVLYESRNKNSVA / WASTRIS / QQYDRLPLS, the assay gave 32 nM (3 of 3 replicates). With KSSQSVLYETRIKNSVA / WASTRES / QQYIRLPLS the result was 6.6 µM (1 of 3 replicates).

Variant KSSQSVLYEGRNKNSVA / SASTRES / QQYERLPLS showed 940 pM (3 of 3 replicates). Variant KSSQSVLYESRNKNSVA / WASTRES / QQYYRLPYS showed 100 nM (3 of 3 replicates). For KISQAVLYESRNKNSVA / WASTRES / QQYKRLPLS, the assay gave 1.5 nM (3 of 3 replicates). For KSSQSVLYESRNKNSVA / WARYRES / QQYARLPLS, the assay gave 46 nM (3 of 3 replicates). Variant KSSQSQLYFSRNKNSVA / WASTRES / QQYARLPLS gave 1.4 nM (3 of 3 replicates). Variant KMSQSVLKESRNKNSVA / WASTRES / QQYTRLPLS showed 2.3 nM (3 of 3 replicates). Variant KSSQSVLYESRNKNSVA / WASTRES / QQYPRLPLS showed 10 µM (1 of 3 replicates). With KSSQSVLYESRNKNSVA / WASTREV / QQYYRLPTS the result was nd (0 of 3 replicates).

Variant KSSQSVLYESRNTNSVA / WASTRES / QQYCRLPLS gave 24 nM (3 of 3 replicates). Variant KSSQSVLYESGNPNSVA / WASTRES / QQYTRLPLS showed 9.6 nM (3 of 3 replicates). For KSSQSCLYESRPKNSVA / WASTRES / QQYPRLPLS, the assay gave 1.7 µM (3 of 3 replicates). For KCSQSVLYESRNKNSVA / WASTREF / QQYQRLPLS, the assay gave 120 nM (2 of 3 replicates). Variant KSSQSTWYESRNKNSVA / WASTRES / QQYFRLPLS showed 1.6 nM (3 of 3 replicates). For KSSQSVLEETRNKNSVA / WASTRES / QQYCRLPLS, the assay gave 37 nM (3 of 3 replicates). With KSSQSVLYESKNKNSVA / WASTRES / QQYDRLPLS the result was 7.7 nM (3 of 3 replicates). Variant KSSQSVLYESNNKNSVA / RASTRES / QQYNRLPLS showed 6.9 nM (3 of 3 replicates).

With KSSQSVLYESRNKNGVA / WASTRES / QQYMRLPCS the result was 510 nM (2 of 3 replicates). With KSSQSVLYESRNKNSVA / WASTREI / QQYPRLPLK the result was 2.1 nM (3 of 3 replicates). Variant KSSQSVLYESRNKNSVA / GASTRES / QQDIRLPLS showed nd (0 of 3 replicates). Variant KSSQSQLYESRNLNSVA / WASTRES / QQYFRLPLS showed 3.3 nM (3 of 3 replicates). Variant KSSQSVLYESRNGNSVA / WASTRYS / QQYLRLPLS showed 8.6 nM (3 of 3 replicates). For KSSQSVLYESRNKNSVA / WASTRES / QQYNRLLLS, the assay gave 5.6 nM (3 of 3 replicates). Variant KSSQSVLYESRNKNSVD / WASTRRS / QQYVRLPLS showed 130 µM (1 of 3 replicates). Variant KSSQSVLYESRNKNSVA / WCSTRES / QQYYRLPLW gave 3.9 µM (2 of 3 replicates).

With KSSQSVLYESRNKNSVA / DASTRES / QQYNRLPDS the result was 8.3 µM (1 of 3 replicates).

Picked from the list: the 5 lowest averages where every replicate gave a value.

Variant KSSQSVLYEGRNKNSVA / SASTRES / QQYERLPLS gave 940 pM (3 of 3 replicates).
Variant KSSQSQLYFSRNKNSVA / WASTRES / QQYARLPLS gave 1.4 nM (3 of 3 replicates).
Variant KISQAVLYESRNKNSVA / WASTRES / QQYKRLPLS gave 1.5 nM (3 of 3 replicates).
Variant KSSQSTWYESRNKNSVA / WASTRES / QQYFRLPLS gave 1.6 nM (3 of 3 replicates).
Variant KSSQSVLYESRNKNSVA / WASTREI / QQYPRLPLK gave 2.1 nM (3 of 3 replicates).

The measurements come from Engelhart et al. 2022 (doi:10.1038/s41597-022-01779-4) through the FLAb antibody collection.